Target: T1, monomeric His-tagged human FcRn (human, UniProt P55899 24-297; P61769 21-119)
T1 construct: also called hFcRn
Experiment: SPR (Biacore 3000), antibody amine-coupled, monomeric His-tagged hFcRn injected, pH 6.0

The chains behind the UniProt entries cited, without tags or fusion partners. Residues count along the entry.
UniProt P55899, 24-297 limits assumed, chain 1 of 2: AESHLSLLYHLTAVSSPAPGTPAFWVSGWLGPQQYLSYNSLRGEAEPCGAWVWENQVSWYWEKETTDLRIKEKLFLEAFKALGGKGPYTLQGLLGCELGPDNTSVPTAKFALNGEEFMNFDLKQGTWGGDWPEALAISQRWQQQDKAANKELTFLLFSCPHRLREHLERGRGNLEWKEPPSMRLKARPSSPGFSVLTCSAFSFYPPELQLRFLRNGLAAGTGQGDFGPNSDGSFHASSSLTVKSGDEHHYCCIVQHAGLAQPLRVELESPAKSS

- Kd: 425 nM
B1: infliximab (antibody)
chain 1: not shown
chain 2: DILLTQSPAILSVSPGERVSFSCRASQFVGSSIHWYQQRTNGSPRLLIKYASESMSGIPSRFSGSGSGTDFTLSINTVESEDIADYYCQQSHSWPFTFGSGTNLEVKRTVAAPSVFIFPPSDEQLKSGTASVVCLLNNFYPREAKVQWKVDNALQSGNSQESVTEQDSKDSTYSLSSTLTLSKADYEKHKVYACEVTHQGLSSPVTKSFNRGEC
